Reference: patent US20130165427A1, “COMPOUNDS AND COMPOSITIONS FOR TREATING CHEMICAL WARFARE AGENT-INDUCED INJURIES” (published 2013)

Sequences of proteins named here, by UniProt entry; tags and fusion partners are left off.
UniProt O75762, whole entry, looked up: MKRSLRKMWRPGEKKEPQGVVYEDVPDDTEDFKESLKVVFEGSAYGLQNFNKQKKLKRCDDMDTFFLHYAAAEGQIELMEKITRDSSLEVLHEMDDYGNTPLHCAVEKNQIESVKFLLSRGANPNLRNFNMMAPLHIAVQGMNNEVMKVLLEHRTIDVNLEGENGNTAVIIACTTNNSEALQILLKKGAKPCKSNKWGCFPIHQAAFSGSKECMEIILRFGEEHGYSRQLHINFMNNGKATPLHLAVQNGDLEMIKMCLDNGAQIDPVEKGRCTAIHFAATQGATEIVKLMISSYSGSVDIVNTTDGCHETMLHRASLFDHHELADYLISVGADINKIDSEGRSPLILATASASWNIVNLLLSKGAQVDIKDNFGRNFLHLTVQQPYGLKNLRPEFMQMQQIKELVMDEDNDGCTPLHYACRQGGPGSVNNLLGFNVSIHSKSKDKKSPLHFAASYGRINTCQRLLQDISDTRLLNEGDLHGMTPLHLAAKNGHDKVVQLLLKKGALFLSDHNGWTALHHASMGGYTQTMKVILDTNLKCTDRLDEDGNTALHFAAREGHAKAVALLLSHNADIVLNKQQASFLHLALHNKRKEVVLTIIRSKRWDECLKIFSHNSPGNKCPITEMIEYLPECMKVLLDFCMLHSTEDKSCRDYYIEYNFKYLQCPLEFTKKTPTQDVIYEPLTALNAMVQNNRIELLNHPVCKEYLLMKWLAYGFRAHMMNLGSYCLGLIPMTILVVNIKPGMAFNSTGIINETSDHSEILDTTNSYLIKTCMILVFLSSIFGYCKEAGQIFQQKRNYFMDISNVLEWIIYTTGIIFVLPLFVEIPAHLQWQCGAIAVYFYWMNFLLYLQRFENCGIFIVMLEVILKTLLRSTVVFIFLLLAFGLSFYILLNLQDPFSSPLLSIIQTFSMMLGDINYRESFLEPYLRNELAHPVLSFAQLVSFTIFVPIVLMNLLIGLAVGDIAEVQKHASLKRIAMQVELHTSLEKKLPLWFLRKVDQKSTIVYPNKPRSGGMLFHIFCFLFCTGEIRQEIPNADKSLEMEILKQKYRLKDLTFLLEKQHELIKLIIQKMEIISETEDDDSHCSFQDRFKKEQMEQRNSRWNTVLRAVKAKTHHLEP

Each molecule was assayed against TRPA1 channel (Homo sapiens, UniProt O75762) (assay: Whole-cell patch clamp experiments, block of TRPA1 current). Conditions: read-out: activity as measured in the patch clamp assay (IC50), HEK293/TREx TRPA1 cells, block of current in continued presence of AITC.

Question: For `Cn1c(=O)c2c(ncn2CC(=O)Nc2nc(-c3ccccn3)cs2)n(C)c1=O`, which IC50 is on record?
Answer: 1 to 10 µM

Question: How did the IC50 turn out when `Cn1c(=O)c2c(ncn2CC(=O)Nc2nc(-c3ccc(Cl)c(Cl)c3)cs2)n(C)c1=O` was run?
Answer: < 1 µM

Question: How did the IC50 turn out when `Cn1c(=O)c2c(ncn2CC(=O)Nc2nc(-c3ccc(F)c(F)c3)cs2)n(C)c1=O` was run?
Answer: < 1 µM

Question: For `Cn1c(=O)c2c(ncn2CC(=O)Nc2nc(-c3ccccc3)c(-c3ccccc3)s2)n(C)c1=O`, which IC50 is on record?
Answer: < 1 µM

Question: For `CC(C)c1ccc(-c2csc(NC(=O)Cn3cnc4c3c(=O)n(C)c(=O)n4C)n2)cc1`, which IC50 is on record?
Answer: < 1 µM

Question: `Cn1c(=O)c2c(ncn2CC(=O)Nc2nnc(-c3ccc(Cl)cc3)s2)n(C)c1=O` was tested. Which IC50 did it give?
Answer: < 1 µM

Question: How did the IC50 turn out when `CCOc1ccc(-c2csc(NC(=O)Cn3cnc4c3c(=O)n(C)c(=O)n4C)n2)cc1` was run?
Answer: < 1 µM

Question: How did the IC50 turn out when `Cn1c(=O)c2c(ncn2CC(=O)Nc2nc(-c3ccc4ccccc4c3)cs2)n(C)c1=O` was run?
Answer: < 1 µM

Question: `Cn1c(=O)c2c(ncn2CC(=O)Nc2nc(-c3ccc(Cl)cc3)cs2)n(C)c1=O` was tested. Which IC50 did it give?
Answer: < 1 µM

Question: Which IC50 does the source give for `Cn1c(=O)c2c(ncn2CC(=O)Nc2nc(-c3ccc(F)cc3F)cs2)n(C)c1=O` here?
Answer: < 1 µM

Question: For `Cn1c(=O)c2c(ncn2CC(=O)Nc2nc(-c3ccc(C(C)(C)C)cc3)cs2)n(C)c1=O`, which IC50 is on record?
Answer: < 1 µM

Question: How did the IC50 turn out when `Cc1ccc(-c2nc(NC(=O)Cn3cnc4c3c(=O)n(C)c(=O)n4C)sc2C)cc1` was run?
Answer: < 1 µM

Question: With `Cc1ccc(-c2csc(NC(=O)Cn3cnc4c3c(=O)n(C)c(=O)n4C)n2)cc1` as the molecule, how does the IC50 read?
Answer: < 1 µM

Question: `Cn1c(=O)c2c(ncn2CC(=O)Nc2nc(-c3ccc(C4CCCCC4)cc3)cs2)n(C)c1=O` was tested. Which IC50 did it give?
Answer: < 1 µM

Question: `Cc1ccc(-c2csc(NC(=O)Cn3cnc4c3c(=O)n(C)c(=O)n4C)n2)o1` was tested. Which IC50 did it give?
Answer: 1 to 10 µM
